Experimental data: patent US20160345895A1
Only a part of the results on these compounds is given; other tests are left out.

Experiment: Arterial remifentanil blood concentrations by LC-MS/MS
Conditions: the subject with hyperalgesia, target 1.8 ng/ml

## CCC(=O)N(c1ccccc1)C1(C(=O)OC)CCN(CCC(=O)OC)CC1
  Steady-state blood concentration: 2.1 ng/mL
